The results in this text go back to ChEMBL document CHEMBL1152610, “3- and 6-Substituted 2-amino-4,5,6,7-tetrahydrothieno[2,3-c]pyridines as A1 adenosine receptor allosteric modulators and antagonists” (Bioorg Med Chem, 2009).

Chains of the proteins cited; added tags and fusions are not shown.
UniProt P30542, whole entry: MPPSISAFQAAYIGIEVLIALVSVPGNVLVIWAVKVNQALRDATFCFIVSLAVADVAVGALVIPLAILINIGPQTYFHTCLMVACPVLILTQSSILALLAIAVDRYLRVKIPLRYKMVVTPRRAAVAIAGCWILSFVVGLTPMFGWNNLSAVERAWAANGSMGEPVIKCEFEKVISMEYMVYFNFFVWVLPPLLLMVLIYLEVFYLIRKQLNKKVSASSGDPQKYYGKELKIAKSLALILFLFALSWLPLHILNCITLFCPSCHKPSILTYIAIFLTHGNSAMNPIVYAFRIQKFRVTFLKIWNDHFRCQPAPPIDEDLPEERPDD

Active and inactive are the calls of the source. The calls are words filed in the database; no cut-off is given here.

Assay type in all cases: functional, cell-based
Experiment [1] deals with T1, Adenosine receptor A1 (Homo sapiens, UniProt P30542). Nature of the experiment: Agonist activity at human adenosine A1 receptor expressed in CHOk1 cells assessed as potentiation of R-PIA-induced ERK1/2 phosphorylation at 10 uM. In outline: (§1)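 FlpIn-CHO cells stably expressing human A1AR were seeded at 50,000/well and kept in serum-free DMEM/20 mM HEPES for at least 4 h. They were pretreated for 30 min with 1 U/mL adenosine deaminase, then for 30 min at 37 °C with compound at 3 or 10 μM.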

Experiment [2] has as its target T1, Adenosine receptor A1. Nature of the experiment: Agonist activity at human adenosine A1 receptor expressed in CHOk1 cells assessed as potentiation of R-PIA-induced ERK1/2 phosphorylation at 3 uM. In outline: as §1
The target in experiment [3] is T1, Adenosine receptor A1. Nature of the experiment: Agonist activity at human adenosine A1 receptor expressed in CHOk1 cells assessed as induction of ERK1/2 phosphorylation at 10 uM relative to R-PIA. In outline: as §1

On to `Cc1sc(N)c(C(=O)c2cccc(C(F)(F)F)c2)c1C`, for which the outcome at Adenosine receptor A1 [1] and on Adenosine receptor A1 [2] was Active. Further, the Activity on Adenosine receptor A1 [3] is 40%.
